Data: ChEMBL document CHEMBL1268880, “Investigation of 4-piperidinols as novel H3 antagonists” (Bioorg Med Chem Lett, 2010)

The chains behind the UniProt entries cited, without tags or fusion partners. Where a name states a change or a piece, a line headed by the entry shows the natural chain unless it says otherwise.
UniProt Q9Y5N1: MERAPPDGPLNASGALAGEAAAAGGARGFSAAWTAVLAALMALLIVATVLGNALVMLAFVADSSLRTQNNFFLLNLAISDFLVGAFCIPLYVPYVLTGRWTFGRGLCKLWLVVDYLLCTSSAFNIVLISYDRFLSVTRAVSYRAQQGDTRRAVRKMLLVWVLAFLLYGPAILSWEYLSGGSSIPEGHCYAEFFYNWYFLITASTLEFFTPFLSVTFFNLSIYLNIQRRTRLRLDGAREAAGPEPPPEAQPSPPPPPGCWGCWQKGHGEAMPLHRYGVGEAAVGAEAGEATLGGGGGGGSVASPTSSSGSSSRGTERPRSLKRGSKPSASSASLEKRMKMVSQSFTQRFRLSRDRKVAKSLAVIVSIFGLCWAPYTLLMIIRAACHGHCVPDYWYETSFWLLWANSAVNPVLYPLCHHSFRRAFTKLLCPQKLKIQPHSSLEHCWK

Molecular target: Histamine H3 receptor (Homo sapiens, UniProt Q9Y5N1)
Assay: Antagonist activity against human histamine H3 receptor expressed in human HT1080 cells assessed as inhibition of (R)-alpha-methylhistamine-induced increase in intracellular calcium level by FLIPR assay
Assay type: functional, cell-based, HT-1080

## NC(=NCc1ccc(Cl)cc1)SCCCc1cnc[nH]1 [CLOBENPROPIT]
  IC50: 1 nM
